For test [1], the system named is BCR/ABL-associated tyrosine kinase activity. The experiment in a line: Anti-phosphotyrosine immunoblotting of AG957 treated K562 cells. The following applies: 20 μM AG957, four hours.
A further test relates to 8226 myeloma cells. The experiment in a line: Microtiter adhesion assay, adhesion of 8226 cells to fibronectin. To be noted: 1.25 μg/ml to 20 μg/ml for 30 minutes before plating, FIG. 27.

Where no end group is shown, it is not given here. [ ]: non-standard residue; d: D form.

Turning to `COC(=O)c1ccc(NCc2cc(O)ccc2O)cc1` [AG957], the “BCR/ABL associated tyrosine phosphorylation” value in test [1] is “abrogates all phosphotyrosine activity with the exception of the 80kda protein”.
As for “kmviywkag ([dK][dM][dV][dI][dY][dW][dK][dA]G) [RZ-3]”, the “effect on adhesion of 8226 cells to FN” value with 8226 myeloma cells is on record as “effective in preventing FN adhesion”.

The values are drawn from patent US7253149B2, “Compounds and methods for modulating cell-adhesion mediated drug resistance” (University of South Florida, priority 2000, dated 2007).
